# Yeast mating assay 1: variants of the scFv Ab-14

The measurements come from Engelhart et al. 2022 (doi:10.1038/s41597-022-01779-4) through the FLAb antibody collection.

Target: peptide PDVDLGDISGINAS, taken from heptad repeat 2 (HR2) of SARS-CoV-2 spike.

Parent scFv Ab-14: VH joined to VL by three GGGGS repeats. Changes lie in the heavy chain CDRs alone.
VH: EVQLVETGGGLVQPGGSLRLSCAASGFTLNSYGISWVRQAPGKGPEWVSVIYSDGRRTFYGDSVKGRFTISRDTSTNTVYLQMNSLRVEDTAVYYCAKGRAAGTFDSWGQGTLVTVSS
VL: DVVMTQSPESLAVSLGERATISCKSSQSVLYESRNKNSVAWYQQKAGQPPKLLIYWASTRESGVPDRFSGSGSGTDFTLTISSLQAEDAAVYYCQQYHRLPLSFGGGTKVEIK

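The starting antibody came from a phage panning campaign against this peptide. AAYL49 was designed without a model: most single CDR substitutions and a random sample of double and triple ones. The scFvs were displayed on barcoded MATa yeast, the peptide on MATalpha yeast. Pairs that bind mate more often; barcode pairs of the diploids are counted by sequencing. A regression on co-assayed BCL2-family reference pairs converts the normalised counts of each replicate to an apparent Kd. The assay was run in three technical replicates.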

The parent's heavy chain CDRs are GFTLNSYGIS, VIYSDGRRTFYGDSVK, GRAAGTFDS; each variant's own CDRs replace them letter for letter. This list gathers variants with a substitution at G26 (VH, numbered from residue 1). The Kd shown is the geometric mean over detected replicates; a lower Kd is a better binder. Where no diploid with the target was found in any replicate, the entry reads "nd": below detection, most likely a poor binder, though not proof of it. Parent in this assay: reference entry 4.4 nM, copy in this library 13 µM (one replicate of three). Nonspecific signal, from three strains lacking the peptide, appeared in 15% of pairings of library AAYL49, centred on 11 µM (5% of these signals below 680 nM); values are not corrected for it.

CFTLNSYGIS / VIYSDGRRTFYGDSVK / GRAAGTFDS: 19 µM (1 of 3 replicates).
YFTLNSYGIS / VIYSDGRRTFYGDSVK / GRAAGTPQS: 26 µM (2 of 3 replicates).
VFTLNSYGIS / VIYSDGLRTFYGDSVK / GRAAGVFDS: 180 µM (1 of 3 replicates).
AFTLNSYGIS / VIYSDRRRTFYGLSVK / GRAAGTFDS: 520 nM (2 of 3 replicates).
NFTLNSYGIS / VIYSDGRRTFYGDSVK / GNAAGTFDS: 6.3 nM (3 of 3 replicates).
RNFLNSYGIS / VIYSDGRRTFYGDSVK / GRAAGTFDS: 1.8 µM (3 of 3 replicates).
MFTLNSYGIS / VIYSDGRRTFYADSVL / GRAAGTFDS: 110 nM (3 of 3 replicates).
IFTMNSYGIS / VIYADGRRTFYGDSVK / GRAAGTFDS: 110 nM (3 of 3 replicates).
QFTLNSYGIS / VIYSDGRRTFYGDSSK / GRCAGTFDS: 96 nM (3 of 3 replicates).
LFTLNSYGIS / VIYSDDYRTFYGDSVK / GRAAGTFDS: 3.9 µM (1 of 3 replicates).
TFTLNSYGIS / VIYSDGRRTFLGDSVK / GRANGTFDS: nd (0 of 3 replicates).
AFTLNSYIIS / VIYSDGRRTFYGDRVK / GRAAGTFDS: 10 µM (2 of 3 replicates).
FFTLNSYGIS / VIYSDGRWTFYGDSVK / GRAAGTFDN: nd (0 of 3 replicates).
DFTLNSYGIE / VIYSDGRRTFYGDSVK / GNAAGTFDS: nd (0 of 3 replicates).
TFTLNSYGIS / SIYSDGRRTFYGDSVK / GRAAGTFDS: nd (0 of 3 replicates).
ACTLNSYGIS / VIYSDMRRTFYGDSVK / GRAAGTFDS: nd (0 of 3 replicates).
QFTLNSYLIS / VIYSDGRRTFYGDSVK / GRAAGYFDS: 11 µM (2 of 3 replicates).
EFTLNMYGIS / VIYSDGRRTFYQDSVK / GRAAGTFDS: 6.3 nM (3 of 3 replicates).
CFTLNSYGIS / VIYSDPRRTFYGDSVK / GRAAGTLDS: nd (0 of 3 replicates).
DFTLNSYGIS / PIYSDGRRTFYGYSVK / GRAAGTFDS: nd (0 of 3 replicates).
IFTLVSYGIS / VIYSDDRRTFYGDSVK / GRAAGTFDS: 99 µM (2 of 3 replicates).
EFTLNSYGYS / VIYSDGRRTFYGDSVK / GWAAGTFDS: 1.2 µM (1 of 3 replicates).
TFTLNSYGIS / DIYSDGRRTFYGDSLK / GRAAGTFDS: nd (0 of 3 replicates).
KFTLNSYGIS / VIYSDGRRDFYGDSVK / GRAAGTKDS: 8.0 µM (2 of 3 replicates).
LFMLNSYGIS / VIYSDGRRTFYGDSCK / GRAAGTFDS: 3.3 µM (1 of 3 replicates).
EFTLNSYGIS / YIYSDGRRTVYGDSVK / GRAAGTFDS: 11 µM (1 of 3 replicates).
NFTLESYGIS / VIYSDNRRTFYGDSVK / GRAAGTFDS: 250 µM (1 of 3 replicates).
QFTLNSYGIS / VIRSDGRRTFYGDNVK / GRAAGTFDS: 46 µM (1 of 3 replicates).
AFTLNRYGIS / VIYSDGRRTFYGDSVK / GCAAGTFDS: 180 nM (3 of 3 replicates).
VFTLNSYGIS / VIYSDGRRMFYGDSYK / GRAAGTFDS: nd (0 of 3 replicates).
AFTLNSYGIS / VIYSDGRREFYGDSVK / GRAAGTQDS: 11 µM (1 of 3 replicates).
AFTLNSYGIS / VMYSDGRRTFYGDSVK / GRQAGTFDS: 12 nM (3 of 3 replicates).
RFSPNSYGIS / VIYSDGRRTFYGDSVK / GRAAGTFDS: nd (0 of 3 replicates).
NFTLNCYGIS / VIYSDGRRTFEGDSVK / GRAAGTFDS: 12 µM (1 of 3 replicates).
YFTLNSYGIS / VIYEDGRRYFYGDSVK / GRAAGTFDS: nd (0 of 3 replicates).
KFTLNSYGIS / VIYSDGRRTFYGDSNK / GRAACTFDS: nd (0 of 3 replicates).
AFTLNSYGIS / VIYSDGRRTFYGDSCK / NRAAGTFDS: 1.2 mM (1 of 3 replicates).
CFTLNSYGIS / VIYSDGDRTFYGDSVK / GRAAGKFDS: 7.5 µM (2 of 3 replicates).
YFTLNSYGES / VIYSDGRRTFYGDSVK / GRAAGTFDS: 11 µM (2 of 3 replicates).
HFTLNSYGIE / VIYSDGRRTFYGDSVC / GRAAGTFDS: 28 µM (1 of 3 replicates).
CFTLNSYGIS / VIYSDGRRTFSGDSVK / GRAGGTFDS: nd (0 of 3 replicates).
MFTLNSYGIP / VIYSDGRRTFYGDSVK / GRAAGTFDS: 19 µM (1 of 3 replicates).
VFTLNSYGIF / VIYSDGRRTFYGDSVK / GRAAGTFDG: 410 µM (3 of 3 replicates).
IFTLNSYGIS / VIYSDGRRTFYGDSVK / ARAAGTFDG: 12 µM (1 of 3 replicates).
NFTLNSYGIG / VIYSDGRRTFYGCSVK / GRAAGTFDS: nd (0 of 3 replicates).
CFTLNSYGIF / VIYSDGRRTFYGDIVK / GRAAGTFDS: nd (0 of 3 replicates).
FFTLNSYGIS / VIYSDGRRTFYGDSVK / PRAAGTFCS: nd (0 of 3 replicates).

Again, the first 7 entries without any signal:

CDR-H1,CDR-H2,CDR-H3,Kd,replicates with signal
TFTLNSYGIS,VIYSDGRRTFLGDSVK,GRANGTFDS,nd,0 of 3
FFTLNSYGIS,VIYSDGRWTFYGDSVK,GRAAGTFDN,nd,0 of 3
DFTLNSYGIE,VIYSDGRRTFYGDSVK,GNAAGTFDS,nd,0 of 3
TFTLNSYGIS,SIYSDGRRTFYGDSVK,GRAAGTFDS,nd,0 of 3
ACTLNSYGIS,VIYSDMRRTFYGDSVK,GRAAGTFDS,nd,0 of 3
CFTLNSYGIS,VIYSDPRRTFYGDSVK,GRAAGTLDS,nd,0 of 3
DFTLNSYGIS,PIYSDGRRTFYGYSVK,GRAAGTFDS,nd,0 of 3